Results reported in patent US8497349B2, “Use of multivalent synthetic ligands of surface nucleolin for treating cancer or inflammation” (Centre National de la Recherche Scientifique (CNRS), priority 2006, dated 2013).

Key:
[1] = tested on: MDA-MB231 cells (HLA-DR+) in blood; assay: HLA-DR+ (MDA-MB231) cells in peripheral blood of xenografted mice by FACS; assay type: in vivo
Protocol: FIG. 11. Effect of HB-19 on metastatic tumour cells in a MDA-MB231 xenograft model. Investigation of MDA-MB231 cells in the blood of xenografted mice and treated or not with HB-19 was performed by flux cytometry (FACS) using anti HLA-DR antibodies. HLA-DR^+ are surrounded and the percentage of HLA-DR^+ cells among blood cells is indicated. A. Blood of mice without an MDA-MB231 xenograft, untreated, percentage of HLA-DR^+ cells among peripheral blood cells: 0.36% B. Blood of mice without an MDA-MB231 xenograft, untreated, percentage of HLA-DR+ cells among peripheral blood cells: 22.2% C. Blood of mice with MDA-MB231 xenograft, treated with HB-19 by subcutaneous route, percentage of HLA-DR+ cells among peripheral blood cells: 0.1% D. Blood of mice with an MDA-MB231 xenograft, treated with HB-19 by intraperitoneal route, percentage of HLA-DR+ cells among peripheral blood cells: 0.31%.
Moreover, it was not possible to detect HLA-DR^+ human cells (therefore MDA-MB231 tumour cells) in the peripheral blood cells of xenografted mice treated with HB-19 (FIG. 11). In fact, contrary to untreated mice (PBS) in which the proportion of MDA-MB231 cells (HLA-DR^+) represents 22.2% of peripheral blood cells, this proportion is only 0.1% to 0.31% in the case of mice treated with HB-19 by subcutaneous or intraperitoneal route.

TNF-α = TNF-α production by human primary PBMC stimulated by heat-killed Staphylococcus aureus (ELISA); assay type: cell-based; conditions: 10 μM; 10^8 HKSA/ml particles; 20 hours
Protocol: FIG. 22. Inhibition by HB-19 of the production of TNF-α and IL-6 by primary human mononuclear peripheral blood cells (PBMC) stimulated by Staphylococcus aureus bacteria inactivated by heat (HKSA, <<heat-killed Staphylococcus aureus>>). PBMCs were isolated by centrifugation on a Ficoll density gradient using whole human blood EDTA-potassium and resuspended in RPMI 1640 containing 1% human serum AB (Invitrogen). Cells at a concentration of 10^6 cell/0.5 ml, in the absence (control) or presence (10 μM) of HB-19, Nucant 3, Nucant 6 or Nucant 7 or Dexamethasone (Dex. 1 μg/ml), were stimulated with 10^8 HKSA/ml particles (InvivoGen, San Diego, USA). PBMC cultures were incubated at 37° C. in an incubator with 5% CO2 and TNF-α (A) and IL-6 (B) levels were measured by ELISA in culture supernatants collected after 20 hours of incubation.
The inventors therefore measured TNF-α and IL-6 levels in human primary PBMC cultures in response to Staphylococcus aureus bacteria inactivated by heat (HKSA, <<heat-killed Staphylococcus aureus>>), in the absence (control) or presence of 10 μM of the compounds HB-19, Nucant 3, Nucant 6, or Nucant 7. As the positive control (Dex.), PBMC was also treated with dexamethasone which is a glucocorticosteroid with known anti-inflammatory and immunosuppressant activity. […]

half-life (In vivo half life): > 24 h
SMILES: CCCC[C@H](NC(=O)[C@H](CCCCNC(=O)[C@H](CCCNC(=N)N)NC(=O)[C@@H]1CCCN1C[C@@H](N)CCCCN)NC(=O)[C@H](CCC(=O)O)NC(=O)[C@H](CCCCNC(=O)[C@H](CCCNC(=N)N)NC(=O)[C@@H]1CCCN1C[C@@H](N)CCCCN)NC(=O)[C@@H]1CCCN1C(=O)CNC(=O)[C@H](CCCCNC(=O)[C@H](CCCNC(=N)N)NC(=O)[C@@H]1CCCN1C[C@@H](N)CCCCN)NC(=O)[C@H](CCCCN)NC(=O)[C@H](CCCCNC(=O)[C@H](CCCNC(=N)N)NC(=O)[C@@H]1CCCN1C[C@@H](N)CCCCN)NC(=O)[C@H](CCCNC(=N)N)NC(=O)[C@@H]1CCCN1C[C@@H](N)CCCCN)C(N)=O [HB19, 5[Kpsi(CH2N)PR]-TASP]
percentage of HLA-DR+ cells among peripheral blood cells ([1]; treated by intraperitoneal route): 0.31% | percentage of HLA-DR+ cells among peripheral blood cells ([1]; treated by subcutaneous route): 0.1% | inhibition of TNF-α production (TNF-α): significant inhibition
